Data reported in patent publication US20150030697A1, “Treatments for gastrointestinal disorders” (published 2015).

Key:
[1] = target: Guanylate cyclase C (GC-C) (human), P25092; assay: cell-based or functional assay
[2] = target: Guanylate cyclase C (GC-C) (human), P25092

Binder | EC50 at pH 5 (nM), cGMP response of T84 cells [1] [nM] | Ki [2] [nM]
CCSLCCNPACTGCY (modifications not checked) [Peptide 1] | 9.8 | 1.1
CCSLCCNPACTGC (modifications not checked) [Peptide 2] | 10.4 | 0.6
CCSLCCNPACTGCY (modifications not checked) [Dephospho-Peptide 1] | – | 10.5
CCSLCCNPACTGC (modifications not checked) [Dephospho-Peptide 2] | – | 4.5
